# Molecular target: T1, Ste2 receptor (Saccharomyces cerevisiae, UniProt D6VTK4)
# T1 construct: Yeast cells coexpressing either the endogenous yeast receptor Ste2p; endogenous in cells; host or cells: S. cerevisiae MATa cells (strain CY1892 in the Sag1p-based ELISA)
# T1 sequence (D6VTK4 1-431): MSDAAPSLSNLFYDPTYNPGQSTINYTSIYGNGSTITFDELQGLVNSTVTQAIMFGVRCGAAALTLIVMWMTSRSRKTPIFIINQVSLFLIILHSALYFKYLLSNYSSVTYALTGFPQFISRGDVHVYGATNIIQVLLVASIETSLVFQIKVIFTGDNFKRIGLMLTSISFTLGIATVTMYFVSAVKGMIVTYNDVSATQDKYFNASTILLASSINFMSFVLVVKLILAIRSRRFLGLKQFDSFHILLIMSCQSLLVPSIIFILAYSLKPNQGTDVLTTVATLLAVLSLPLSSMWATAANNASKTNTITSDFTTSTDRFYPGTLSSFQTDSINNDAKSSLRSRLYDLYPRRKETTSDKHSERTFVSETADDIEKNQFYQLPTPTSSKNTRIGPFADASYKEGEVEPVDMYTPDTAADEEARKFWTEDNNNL
# Assay: ELISA-like assay of endogenous Aga2 protein with Sag1p21-352, anti-Xpress antibodies and HRP conjugate
# Format: cell-based, S. cerevisiae
# Conditions: read-out: EC50 of induction of the Aga2 protein; strain CY1892, Sag1p21-352 / anti-Xpress / HRP detection
# Experimental: Extraction of the endogenous Aga2 protein was effected with DTT, as before. Aliquots (25 microliters) of extracts were diluted with 75 microliters of 100 mM sodium bicarbonate, pH 9.5 and the resulting samples were incubated in 96-well polystyrene plates at 4° C. overnight.
# After washing the plates three times with PBS, pH 6.5, supplemented with 0.1% Tween 20, samples were blocked with the same buffer containing 3% bovine serum albumin at 37° C. for 1 hour. After blocking, the plates were incubated subsequently with EndoH-treated Sag1p^21-352 solution (0.5 mg/ml), 1000-fold diluted anti-Xpress antibodies (Invitrogen) and 5000-fold diluted sheep anti-mouse IgG conjugated with horseradish peroxidase (Amersham Pharmacia Biotech). Both Sag1p^21-352 and antibodies were dissolved in PBS, pH 6.5 supplemented with 3% BSA. Each incubation was conducted at room temperature for 1 hr and was followed by three washes with PBS, pH 6.5, 0.1% Tween 20. Finally, the peroxidase activities in each well were determined using tetramethyl benzidine as a substrate. If the Aga2 protein were present in the plate, the Sag1p^21-352 should bind to it, the anti-Xpress antibody binds to the Sag1p^21-352 fusion protein, and the sheep anti-mouse IgG antibodies bind specifically to the anti-Xpress antibody.
substance,measurement,value
α-factor,EC50,37 nM

# Source: patent publication US7223533B2, “Cell surface proteins and use thereof as indicators of activation of cellular signal transduction pathways” (priority 1999, dated 2007)
